Results: patent publication US20040146519A1, “Inducing cellular immune responses to carcinoembryonic antigen using peptide and nucleic acid compositions” (priority 2002, published 2004)
pIC50: −log10 of the molar value. Blank lines part the entries; values can stand above or below the compound they belong to.

Columns and labels:
[1] = system: .221A2.1 cells pulsed with peptide; conditions: Kawashima et al., Hum. Immunol. 59:1-14, 1998; cited from earlier work
[2] = molecular target: HLA-A*0101 (Homo sapiens, UniProt P04439, A114D/A174V/A182V/D101N/D185E/E176A/E190D/L180R/Q94H/R68K/S129P/T187R/V100A/V91M/W191G); experiment: HLA class I binding assay, purified HLA-A*0101; conditions: for pIC50: read-out: A*[…], Table XXVb, A01 analog peptides; for A*0101: relative binding ratio = IC50 of standard peptide / IC50 of test peptide, CEA A01 supermotif peptides
[3] = molecular target: HLA-A*0301 (Homo sapiens, UniProt P04439); experiment: HLA class I binding assay, purified HLA-A*0301; conditions: for pIC50: Table XXIII, binding affinity; for A*0301 binding data: CEA A03 motif peptides, unit not given
[4] = molecular target: HLA-A*3101 (Homo sapiens, UniProt P04439, A270S/D185E/E176V/E277Q/F33T/G231S/G80R/H175R/I121M/I218V/I322F/K168Q/L300P/L318F/M331R/P217A/Q94H/R138Q/T323A/T345S/T97I/V358M); experiment: HLA class I binding assay, purified HLA-A*3101; conditions: Table XXIII, binding affinity
[5] = molecular target: HLA-A*1101 (Homo sapiens, UniProt P04439, A114D/D185E/E176A/F33Y/L180Q/S129P/T187R); experiment: HLA class I binding assay, purified HLA-A*1101; conditions: CEA A11 motif peptides; unit not given
[6] = molecular target: HLA-A*6802 (Homo sapiens, UniProt P04439, A269V/D140Y/D185E/E176V/E277Q/E87N/F33Y/G231S/I121R/I166T/I218V/L180W/L300P/L318F/N151K/P208A/P217A/Q86R/R138H/R169H/S129P/T345S/V36M); experiment: HLA class I binding assay, purified HLA-A*6802; conditions: Table XXVIIa, binding affinity
[7] = system: A3-supertype molecules (A*0301, A*1101, A*3101, A*3301, A*6801); experiment: A3-supertype cross-reactive binding (alleles bound of five tested); set-up: species or system human; conditions: Table XXIII
Method: Using methodology similar to that used to develop HLA-A2 analogs, analogs of HLA-A3 and HLA-B7 supermotif-bearing epitopes are also generated. […] The analog peptides are then tested for the ability to bind A*03 and A*11 (prototype A3 supertype alleles).

Compound: CC(C)C[C@H](NC(=O)[C@H](CC(N)=O)NC(=O)[C@H](CC(C)C)NC(=O)[C@H](CC(N)=O)NC(=O)[C@H](C)NC(=O)CNC(=O)[C@H](CO)NC(=O)[C@H](CC(C)C)NC(=O)[C@@H](N)Cc1ccc(O)cc1)C(=O)O [compound 605]
previously identified as an epitope [1]: previously identifed

Compound: CC(C)[C@H](NC(=O)[C@@H](N)[C@@H](C)O)C(=O)N[C@@H](CO)C(=O)N1CCC[C@H]1C(=O)N[C@@H](CO)C(=O)N[C@@H](Cc1ccc(O)cc1)C(=O)N[C@H](C(=O)N[C@@H](Cc1ccc(O)cc1)C(=O)N[C@@H](Cc1ccc(O)cc1)C(=O)N[C@@H](CCCCN)C(=O)O)[C@@H](C)O [CEA.419.V2K10]
pIC50 [3]: 7.16

Compound: CC(C)C[C@H](NC(=O)[C@H](CC(C)C)NC(=O)[C@@H](NC(=O)[C@H](CC(C)C)NC(=O)[C@@H](NC(=O)[C@@H](N)CCCNC(=N)N)[C@@H](C)O)[C@@H](C)O)C(=O)N[C@@H](CO)C(=O)N[C@H](C(=O)N[C@H](C(=O)N[C@@H](CCCNC(=N)N)C(=O)O)[C@@H](C)O)C(C)C [CEA.376]
pIC50 [4]: 8.21

Compound: C[C@H](NC(=O)[C@H](CO)NC(=O)[C@@H](N)Cc1c[nH]cn1)C(=O)N[C@@H](CO)C(=O)N[C@@H](CC(N)=O)C(=O)N1CCC[C@H]1C(=O)N[C@@H](CO)C(=O)N1CCC[C@H]1C(=O)N[C@@H](CCC(N)=O)C(=O)N[C@@H](Cc1ccc(O)cc1)C(=O)O [616/10]
A*0101 [2]: 0.3400
A*0301 binding data [3]: 0.0006
A*1101 binding data [5]: 0.0001

Compound: CC(C)C[C@H](NC(=O)[C@@H](N)C(C)C)C(=O)N[C@@H](Cc1ccc(O)cc1)C(=O)NCC(=O)N1CCC[C@H]1C(=O)N[C@@H](CC(=O)O)C(=O)N[C@@H](CC(=O)O)C(=O)N1CCC[C@H]1C(=O)N[C@H](C(=O)N[C@H](C(=O)O)C(C)C)[C@@H](C)O [CEA.411.V10]
pIC50 [6]: < 5.00

Compound: CC[C@H](C)[C@H](NC(=O)[C@@H](NC(=O)[C@@H]1CCCN1)[C@@H](C)O)C(=O)N[C@@H](CO)C(=O)N1CCC[C@H]1C(=O)N[C@@H](CO)C(=O)N[C@@H](Cc1ccc(O)cc1)C(=O)N[C@H](C(=O)N[C@@H](Cc1ccc(O)cc1)C(=O)N[C@@H](Cc1ccc(O)cc1)C(=O)O)[C@@H](C)O [418/10]
A*0101 [2]: 0.0770
A*0301 binding data [3]: 0.0006
pIC50 [3]: < 5.00
A*1101 binding data [5]: 0.0018
No. of A3 Alleles Crossbound [7]: 3

Now from value to compound:

pIC50 [2]: 7.25
Compound: C[C@H](NC(=O)[C@@H]1CCCN1C(=O)CNC(=O)[C@@H]1CCCN1C(=O)[C@@H](NC(=O)[C@H](CC(=O)O)NC(=O)[C@H](CCC(N)=O)NC(=O)[C@@H](N)CCC(N)=O)[C@@H](C)O)C(=O)N[C@@H](Cc1ccc(O)cc1)C(=O)O [Peptide 57.0004]

pIC50 [2]: 7.42
Compound: C[C@@H](O)[C@H](NC(=O)[C@H](Cc1ccc(O)cc1)NC(=O)[C@H](CO)NC(=O)[C@@H]1CCCN1C(=O)[C@H](CO)NC(=O)[C@H](CC(=O)O)NC(=O)[C@@H](NC(=O)[C@@H]1CCCN1)[C@@H](C)O)C(=O)N[C@@H](Cc1ccc(O)cc1)C(=O)O [Peptide 57.0011]
